Here are results for 24 compounds from PubChem BioAssay AID1527 (The Scripps Research Institute Molecular Screening Center, 2009).

The list shows a part of the results, in another mix than the full data. Some tests of the compounds listed are not included; inactive here does not mean inactive elsewhere. Calls of active or inactive are those of the source.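 Rule for the calls: active = inhibition above the mean of all tested compounds plus 3 SD, cutoff set per screening run (cut at about 7.5% in these data); inactive = the rest.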

The assay deals with VIM-2 metallo-beta-lactamase (Pseudomonas aeruginosa). The assay can be described thus: VIM-2 metallo-beta-lactamase inhibitors, primary screen, biochemical, epi-absorbance readout, Pseudomonas aeruginosa enzyme (AID 1527).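 Note: red hydrolysis product quenches plate fluorescence so inhibitors raise well fluorescence; 0% = enzyme with DMSO and 100% = DMSO without enzyme.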 As to conditions: purified VIM-2, nitrocefin hydrolysis, epi-absorbance fluorescence; at 5.6 µM; stronger effect = higher value.
On to `COc1cccc(C(=O)NCC2(N3CCCCC3)CCCCC2)c1`, for which the inhibition is inactive: -3.1%.

For the compound `COc1ccc(Cl)cc1C(=O)NCC1(N(C)C)CCCCC1`, the inhibition is inactive: 1.27%.

Take `O=C(NCC1(N2CCCCC2)CCCCC1)c1cccc(Cl)c1`: the inhibition is inactive: -2%.

As for `CN(C)C1(CNC(=O)c2ccc(Br)cc2)CCCCC1`, the inhibition is inactive: -3.22%.

As for `COc1cc(C(=O)NCC2(N(C)C)CCCCC2)c([N+](=O)[O-])cc1OC`, the inhibition was inactive: 0.69%.

For `COc1ccc(Br)c(C(=O)NCC2(N3CCCCC3)CCCCC2)c1`, the inhibition was inactive: 0.58%.

For the compound `CN(C)c1cccc(C(=O)NCC2(N(C)C)CCCCC2)c1`, the inhibition is inactive: -1.16%.

Take `CC(C)Oc1ccc(C(=O)NCC2(N(C)C)CCCCC2)cc1`: the inhibition is inactive: 1.09%.

As for `O=C(OC1CN2CCC1CC2)C(CO)(c1ccccc1)c1ccccc1` (centres undefined), the inhibition is inactive: -3.44%.

On to `CC(C)N1C(=O)CC2(CCN(CCOC(=O)C(O)(c3ccccc3)c3ccccc3)CC2)C1=O`, for which the inhibition is inactive: 0.66%.

In the case of `CCN(CC)CC(C)C(C)OC(=O)C(O)(c1ccccc1)c1ccccc1` (centres undefined), the inhibition was inactive: -2.41%.

Regarding `COc1cc(SC)ccc1C(=O)NCC1(N(C)C)CCCCC1`, the inhibition was inactive: -1.25%.

`Cc1ccc(C(=O)NCC2(N3CCCCC3)CCCCC2)cc1`: the inhibition is inactive: -0.39%.

Turning to `O=C(NCC1(N2CCCCC2)CCCCC1)c1cc([N+](=O)[O-])ccc1Cl`, the inhibition is inactive: 0.49%.

For the compound `CN1[C@@H]2CC[C@H]1CC(OC(=O)C(O)(c1ccccc1)c1ccccc1)C2` (some centres undefined), the inhibition was inactive: -3.93%.

Turning to `C=CCN1CCN(CCOC(=O)C(O)(c2ccccc2)c2ccccc2)CC1`, the inhibition is inactive: -4.79%.

As to `O=C(NCC1(N2CCCCC2)CCCCC1)c1cc(F)c(F)cc1Cl`, the inhibition is inactive: -2.81%.

Regarding `Cc1cc(C(=O)NCC2(N3CCCCC3)CCCCC2)ccc1[N+](=O)[O-]`, the inhibition is inactive: -3.59%.

For `CCN1CCCC(OC(=O)C2(O)c3ccccc3C=Cc3ccccc32)C1` (centres undefined), the inhibition was inactive: -0.06%.

In the case of `O=C(NCC1(N2CCCCC2)CCCCC1)c1cccc(Br)c1`, the inhibition was inactive: -0.31%.

For `COc1ccc(C(=O)NCC2(N(C)C)CCCCC2)cc1`, the inhibition is inactive: 0.69%.

Turning to `Cc1ccccc1C(=O)NCC1(N2CCCCC2)CCCCC1`, the inhibition was inactive: -1.6%.

Turning to `CN(C)C1CCCC1OC(=O)C(O)(c1ccccc1)c1ccccc1` (centres undefined), the inhibition is inactive: 0.16%.

Consider `CN(C)c1ccc(C(=O)NCC2(N(C)C)CCCCC2)cc1`, for which the inhibition was inactive: -2.32%.
